Assay results reported in paper PMC12900513, “BICC1 interacts with PKD1 and PKD2 to drive cystogenesis in ADPKD” (eLife, 2026).

Protein sequences, listed by entry. Tags and fused reporters are not part of them. Residues count along the entry.
UniProt P98161, 24-4303: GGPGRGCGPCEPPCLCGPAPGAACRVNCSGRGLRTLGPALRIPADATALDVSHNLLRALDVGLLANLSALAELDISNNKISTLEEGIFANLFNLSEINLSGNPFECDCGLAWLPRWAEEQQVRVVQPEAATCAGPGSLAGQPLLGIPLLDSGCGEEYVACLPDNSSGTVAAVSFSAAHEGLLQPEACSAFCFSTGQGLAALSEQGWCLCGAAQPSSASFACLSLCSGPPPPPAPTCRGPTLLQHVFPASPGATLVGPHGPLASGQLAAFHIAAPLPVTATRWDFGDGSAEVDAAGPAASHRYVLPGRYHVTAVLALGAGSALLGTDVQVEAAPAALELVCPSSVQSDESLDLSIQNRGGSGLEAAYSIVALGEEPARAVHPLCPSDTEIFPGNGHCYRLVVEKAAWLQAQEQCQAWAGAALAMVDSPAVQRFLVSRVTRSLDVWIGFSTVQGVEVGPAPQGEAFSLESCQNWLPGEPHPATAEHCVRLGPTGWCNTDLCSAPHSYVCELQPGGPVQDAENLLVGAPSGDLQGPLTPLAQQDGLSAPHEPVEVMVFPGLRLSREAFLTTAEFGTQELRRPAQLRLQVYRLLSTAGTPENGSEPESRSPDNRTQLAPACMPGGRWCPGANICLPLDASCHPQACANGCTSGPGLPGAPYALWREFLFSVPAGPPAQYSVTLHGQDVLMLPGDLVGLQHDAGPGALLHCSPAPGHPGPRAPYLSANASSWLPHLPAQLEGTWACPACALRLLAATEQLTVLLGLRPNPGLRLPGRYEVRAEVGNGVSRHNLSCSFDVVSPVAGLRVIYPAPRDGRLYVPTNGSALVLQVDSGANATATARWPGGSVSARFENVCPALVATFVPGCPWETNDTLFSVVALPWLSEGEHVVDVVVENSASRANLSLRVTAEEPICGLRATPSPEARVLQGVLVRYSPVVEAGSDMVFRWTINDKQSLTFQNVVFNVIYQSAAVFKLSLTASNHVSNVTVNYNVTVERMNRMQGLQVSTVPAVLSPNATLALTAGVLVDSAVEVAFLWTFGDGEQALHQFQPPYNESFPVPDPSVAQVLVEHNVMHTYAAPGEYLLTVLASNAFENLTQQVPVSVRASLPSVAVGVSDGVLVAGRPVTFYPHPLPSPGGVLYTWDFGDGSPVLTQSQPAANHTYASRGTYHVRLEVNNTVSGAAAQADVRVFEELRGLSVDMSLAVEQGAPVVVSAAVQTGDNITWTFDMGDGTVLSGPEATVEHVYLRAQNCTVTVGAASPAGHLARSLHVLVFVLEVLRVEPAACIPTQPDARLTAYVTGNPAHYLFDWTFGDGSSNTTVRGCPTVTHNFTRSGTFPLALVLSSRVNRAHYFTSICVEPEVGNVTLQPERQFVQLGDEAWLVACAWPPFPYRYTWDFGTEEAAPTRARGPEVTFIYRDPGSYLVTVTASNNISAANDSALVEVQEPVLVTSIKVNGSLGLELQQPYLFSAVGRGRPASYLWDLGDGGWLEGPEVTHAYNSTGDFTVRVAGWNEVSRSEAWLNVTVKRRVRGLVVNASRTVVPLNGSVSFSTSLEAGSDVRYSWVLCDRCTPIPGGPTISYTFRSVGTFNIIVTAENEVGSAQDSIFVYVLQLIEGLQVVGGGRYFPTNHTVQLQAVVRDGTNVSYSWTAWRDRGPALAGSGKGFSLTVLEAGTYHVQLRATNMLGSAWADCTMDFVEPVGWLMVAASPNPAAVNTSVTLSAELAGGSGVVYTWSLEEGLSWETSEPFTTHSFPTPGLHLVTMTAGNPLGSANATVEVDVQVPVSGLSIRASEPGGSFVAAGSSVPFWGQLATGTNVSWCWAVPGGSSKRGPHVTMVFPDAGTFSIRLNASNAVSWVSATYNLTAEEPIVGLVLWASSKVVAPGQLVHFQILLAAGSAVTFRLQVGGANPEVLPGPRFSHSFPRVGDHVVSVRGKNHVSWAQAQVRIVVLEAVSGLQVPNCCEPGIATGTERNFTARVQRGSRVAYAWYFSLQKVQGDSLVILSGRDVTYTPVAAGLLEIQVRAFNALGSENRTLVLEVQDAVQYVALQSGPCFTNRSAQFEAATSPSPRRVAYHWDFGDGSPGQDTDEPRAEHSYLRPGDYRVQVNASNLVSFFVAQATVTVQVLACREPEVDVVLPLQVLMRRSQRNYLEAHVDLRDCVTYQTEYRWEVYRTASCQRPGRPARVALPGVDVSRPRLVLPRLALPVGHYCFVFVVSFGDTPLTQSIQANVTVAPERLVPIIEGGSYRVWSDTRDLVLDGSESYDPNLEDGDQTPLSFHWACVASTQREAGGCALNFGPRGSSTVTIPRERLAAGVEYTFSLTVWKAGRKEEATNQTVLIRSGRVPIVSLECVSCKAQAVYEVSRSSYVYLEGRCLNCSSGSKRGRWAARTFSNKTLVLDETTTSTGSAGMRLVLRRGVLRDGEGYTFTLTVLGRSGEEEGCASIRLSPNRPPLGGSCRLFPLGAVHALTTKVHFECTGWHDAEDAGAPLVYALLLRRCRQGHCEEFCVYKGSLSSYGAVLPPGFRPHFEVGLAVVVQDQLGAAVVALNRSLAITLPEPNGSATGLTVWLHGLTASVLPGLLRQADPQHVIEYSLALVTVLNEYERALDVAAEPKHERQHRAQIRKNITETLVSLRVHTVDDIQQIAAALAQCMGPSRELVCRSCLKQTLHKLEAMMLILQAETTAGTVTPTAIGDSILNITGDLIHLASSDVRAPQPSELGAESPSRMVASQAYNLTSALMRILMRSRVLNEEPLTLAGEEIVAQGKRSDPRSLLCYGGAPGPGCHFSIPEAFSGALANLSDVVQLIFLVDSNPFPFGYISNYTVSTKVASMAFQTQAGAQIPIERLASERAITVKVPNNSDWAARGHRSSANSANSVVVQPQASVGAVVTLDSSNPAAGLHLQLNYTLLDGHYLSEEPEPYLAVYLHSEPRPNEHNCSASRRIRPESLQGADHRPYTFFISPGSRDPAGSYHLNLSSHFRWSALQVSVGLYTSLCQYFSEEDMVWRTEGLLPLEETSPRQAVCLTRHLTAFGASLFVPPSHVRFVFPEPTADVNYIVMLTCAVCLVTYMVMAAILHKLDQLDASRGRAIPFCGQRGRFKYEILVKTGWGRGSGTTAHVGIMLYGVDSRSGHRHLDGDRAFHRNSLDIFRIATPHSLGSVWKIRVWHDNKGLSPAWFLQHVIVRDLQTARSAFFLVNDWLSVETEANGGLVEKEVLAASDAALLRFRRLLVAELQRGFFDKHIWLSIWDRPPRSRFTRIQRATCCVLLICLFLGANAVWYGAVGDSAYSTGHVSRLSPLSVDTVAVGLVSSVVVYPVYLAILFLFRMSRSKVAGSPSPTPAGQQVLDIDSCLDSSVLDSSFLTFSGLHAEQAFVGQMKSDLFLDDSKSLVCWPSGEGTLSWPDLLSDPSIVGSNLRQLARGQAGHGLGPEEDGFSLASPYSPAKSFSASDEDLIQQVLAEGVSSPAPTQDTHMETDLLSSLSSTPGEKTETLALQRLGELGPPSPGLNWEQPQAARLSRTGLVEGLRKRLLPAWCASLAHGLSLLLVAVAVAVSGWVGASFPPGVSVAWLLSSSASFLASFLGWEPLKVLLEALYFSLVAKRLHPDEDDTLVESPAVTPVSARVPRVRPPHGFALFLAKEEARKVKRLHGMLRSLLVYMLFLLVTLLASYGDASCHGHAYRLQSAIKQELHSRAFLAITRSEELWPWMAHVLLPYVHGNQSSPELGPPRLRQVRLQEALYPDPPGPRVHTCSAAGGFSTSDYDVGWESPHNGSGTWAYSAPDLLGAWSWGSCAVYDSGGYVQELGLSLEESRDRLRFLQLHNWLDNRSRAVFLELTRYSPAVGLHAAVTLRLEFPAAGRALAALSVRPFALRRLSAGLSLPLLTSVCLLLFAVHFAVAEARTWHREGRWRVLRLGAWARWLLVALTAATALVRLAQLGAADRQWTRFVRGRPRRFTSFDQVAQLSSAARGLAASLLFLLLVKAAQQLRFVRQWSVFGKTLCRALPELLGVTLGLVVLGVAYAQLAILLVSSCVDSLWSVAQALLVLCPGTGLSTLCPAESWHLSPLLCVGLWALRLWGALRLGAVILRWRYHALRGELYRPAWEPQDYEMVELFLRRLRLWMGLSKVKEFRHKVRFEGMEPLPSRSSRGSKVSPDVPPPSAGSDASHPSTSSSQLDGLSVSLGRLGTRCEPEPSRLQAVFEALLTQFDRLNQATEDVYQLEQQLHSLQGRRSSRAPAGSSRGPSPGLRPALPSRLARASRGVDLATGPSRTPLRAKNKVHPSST

Target: T1, PC1-HA (full-length HA-tagged Polycystin-1) (UniProt P98161 24-4303)
T1 construct: Polycystin-1 (PC1, PKD1), full length; plasmid previously reported (Xu et al., 2016); also called Full-length PC1; source: HEK-293, transfected, in lysate
Experiment: co-IP; myc-mBicc1 constructs co-expressed with HA-tagged PC1 or PC2 in HEK-293 cells; the HA-tagged protein as bait
Conditions: partners not purified

B1: myc-mBicc1-ΔKH (aa352-977) (domain or fragment, mouse, UniProt Q99MQ1 352-977, looked up)
chain: GCLPLVLMFDMKEDIEVDPQVIAQLMEQLDVFISIKPKPKQPSKSVIVKSVERNALNMYEARKCLLGLESSGVSIATSLSPASCPAGLACPSLDILASAGLGLTGLGLLGPTTLSLNTSATPNSLLNALNTSVSPLQSSSSGTPSPTLWAPPIANTASATGFSTIPHLMLPSTAQATLTNILLSGVPTYGHTAPSPPPGLTPVDVHINSMQTEGKNISASINGHVQPANMKYGPLSTSSLGEKVLSSNHGDPSMQTAGPEQASPKSNSVEGCNDAFVEVGMPRSPSHSGNAGDLKQMLGASKVSCAKRQTVELLQGTKNSHLHGTDRLLSDPELSATESPLADKKAPGSERAAERAAAAQQKSERARLASQPTYVHMQAFDYEQKKLLATKAMLKKPVVTEVRTPTNTWSGLGFSKSMPAETIKELRRANHVSYKPTMTTAYEGSSLSLSRSSSREHLASGSESDNWRDRNGIGPMGHSEFSAPIGSPKRKQNKSREHYLSSSNYMDCISSLTGSNGCNLNSCFKGSDLPELFSKLGLGKYTDVFQQQEIDLQTFLTLTDQDLKELGITTFGARRKMLLAISELSKNRRKLFEPPNASCTSFLEGGASGRLPRQYHSDIASVSGRW
notes: Bicc1, mouse, aa352-977, lacks the KH/KHL domains (aa1-351); also called myc-mBicc1-△KH; source: HEK-293, transfected, in lysate
fold change of the interaction against myc-mBicc1 or myc-mBicc1-ΔSAM: 8 fold
